Data taken from US9493438B2, “4,4-difluoro-piperidine-compounds” (ROTTAPHARM BIOTECH S.R.L., priority 2012, dated 2016).

Sequences of proteins named here, by UniProt entry; tags and fusion partners are left off.
UniProt O43613, whole entry: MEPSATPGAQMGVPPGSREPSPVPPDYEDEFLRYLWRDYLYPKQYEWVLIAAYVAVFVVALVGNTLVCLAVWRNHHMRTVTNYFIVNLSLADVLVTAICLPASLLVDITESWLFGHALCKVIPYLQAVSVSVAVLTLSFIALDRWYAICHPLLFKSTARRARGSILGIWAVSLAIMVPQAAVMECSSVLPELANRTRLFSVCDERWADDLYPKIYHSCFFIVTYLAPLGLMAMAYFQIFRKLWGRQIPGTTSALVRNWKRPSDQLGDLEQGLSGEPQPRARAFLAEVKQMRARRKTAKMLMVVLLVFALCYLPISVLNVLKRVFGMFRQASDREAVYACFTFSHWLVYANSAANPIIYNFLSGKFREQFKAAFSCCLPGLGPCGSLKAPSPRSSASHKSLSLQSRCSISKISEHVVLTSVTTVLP

Target: T1, human OX1 receptors (Homo sapiens, UniProt O43613)
T1 construct: expressed in transfected cells; host or cells: CHO cells
Experiment: antagonistic activity against human OX1 receptor, [Ca2+]i fluorimetry in transfected CHO cells
Assay type: cell-based
Settings: CHO cells transfected with human recombinant OX1; activated with orexin-A 3 nM; pKb = co-logarithm of apparent dissociation constant (modified Cheng Prusoff)
Description: In a typical experiment, the antagonistic activity against human OX1 and OX2 receptors is determined by using CHO e HEK-293 cells transfected with human recombinant OX1 and OX2 receptors respectively, seeded at density of 2 and 3×10^4 cells/well respectively in a 96 fluorimetry well plate. Thus the plate was loaded with the calcium dye (Fluo-4NW/probenecid in HBSS, Hepes 20 mM, pH 7.4; Invitrogen) at 37° C. for 60 min. Afterward the temperature was equilibrated at 22° C. for 15 min and the [Ca2+]i measured directly on the plate by using a fluorescent plate reader (CeliLux Perkin Elmer).
Invention compounds were dissolved in DMSO, diluted in HBSS (DMSO, 0.3% final) and added to the wells. After 5 min CHO cells were activated with orexin-A, 3 nM while HEK-293 cells were activated with orexin-B, 10 nM. The compounds, dissolved in DMSO and diluted in the medium (DMSO, 0.3% final), have been analysed in the 1 nM-1 μM concentration range (every concentration in duplicate). The antagonistic activity has been expressed as pKb (co-logarithm of the apparent dissociation constant calculated by using the modified Cheng Prusoff equation). The results are expressed as percent of control specific […] response ((measured specific response/control specific agonist response)×100) obtained in the presence of the test compounds. […]

- Kb: 0.501 nM
SMILES: Cc1ccc(-n2nccn2)c(C(=O)N2CCC(F)(F)CC2CNc2ccc(Cl)cn2)c1 (single isomer, unassigned; isomer a) [Compound 3, (2-(((5-chloropyridin-2-yl)amino)methyl)-4,4-difluoropiperidin-1-yl)(5-methyl-2-(2H-1,2,3-triazol-2-yl)phenyl)methanone (isomer A)]
